This assay concerns Enterovirus D68 (US/KY/14-18953 strain). As to the kind of experiment: CPE inhibition assay. As to conditions: for EC50: Enterovirus D. In kind it is cell-based.
Where [1] appears, read: EVD68, RD, read-out: 50% inhibition of viral cytopathic effect (EC50) and 90% inhibition (EC90) of virus yield, range against EV-D68.
Setting [2] is: RD, read-out: EC50, 50% effective (virus-inhibitory) concentration.

This is an account of results in PMC5100981 (Antiviral research, 2016).

Where two headings read alike, the source gives them in different places.

`Nc1cc2nc[nH]c2c(=O)[nH]1` [3-Deazaguanine, 3-deazaguanine]: the “SI, selectivity index (CC50 / EC50)” value is 45. Further, the EC50 under setting [1] fell in the range of 7 to 13 µM. In addition, under setting [2], the EC50 stood at 8 ± 2.3 µM.

Regarding `CC(C)S(=O)(=O)n1c(N)nc2ccc(/C(=N/O)c3ccccc3)cc21` [Enviroxime, enviroxime], the EC50 under setting [1] lay in the range of 0.01 to 0.3 µM and the EC50 under setting [2] amounted to 0.31 ± 0.22 µM.

As to `CCOC(=O)c1ccc(OCCC2CCN(c3ccc(C)nn3)CC2)cc1` [Pirodavir, pirodavir], the EC50 is, setting by setting: under setting [1], 7 to 13 µM; under setting [2], 13 ± 7 µM.

Consider `Cc1cc(CCCOc2c(C)cc(-c3noc(C(F)(F)F)n3)cc2C)on1` [Pleconaril, pleconaril], for which the “SI, selectivity index (CC50 / EC50)” value is 87. Also, under setting [1], the EC50 was in the range of 0.01 to 0.3 µM. For the same compound, the EC50 under setting [2] was 0.13 ± 0.03 µM.

Consider `NC(=O)c1ncn([C@@H]2O[C@H](CO)[C@@H](O)[C@H]2O)n1` [Ribavirin, ribavirin], for which the EC50 under setting [1] lay in the range of 80 to 135 µM and the EC50 under setting [2] turned out to be 135 ± 74 µM.

`CCOC(=O)/C=C/[C@H](C[C@@H]1CCNC1=O)NC(=O)[C@@H](CC(=O)[C@@H](NC(=O)c1cc(C)on1)C(C)C)Cc1ccc(F)cc1` [Rupintrivir, rupintrivir]: the “SI, selectivity index (CC50 / EC50)” value came out at 29130. Further, the EC50 under setting [1] fell in the range of 0.0022 to 0.0053 µM. The EC50 under setting [2] came out at 0.0046 ± 0.0027 µM.
